# Results taken from PMC8467532, “DYRK1A Kinase Inhibitors Promote β-Cell Survival and Insulin Homeostasis” (Cells, 2021).
# Tested on: INS-1E and MIN6 cells
# Experiment: Ki67 proliferation analysis
# Format: cell-based, rat, mouse
# Settings: TGF-β inhibitor alone
structure (smiles),measurement,value
"c1ccc(-c2n[nH]cc2-c2ccnc3ccccc23)nc1 [LY364947, 4-(3-(2-pyridinyl)-1H-pyrazol-4-yl)-quinoline, reference compound]",effect on cell proliferation,did not affect cell proliferation
